Results taken from US20260384450A1, “MACROCYCLIC AMINOPYRIDINE COMPOUNDS AS EGFR INHIBITORS” (published 2026).
Read-outs that look alike come from different tables or passages of the source.

The chains behind the UniProt entries cited, without tags or fusion partners. Where a name states a change or a piece, a line headed by the entry shows the natural chain unless it says otherwise. A line that says so, or that is headed by a name, gives the form on record, which may keep a tag or linker. Residues count along the entry.
UniProt P00533, 25-1210 limits assumed: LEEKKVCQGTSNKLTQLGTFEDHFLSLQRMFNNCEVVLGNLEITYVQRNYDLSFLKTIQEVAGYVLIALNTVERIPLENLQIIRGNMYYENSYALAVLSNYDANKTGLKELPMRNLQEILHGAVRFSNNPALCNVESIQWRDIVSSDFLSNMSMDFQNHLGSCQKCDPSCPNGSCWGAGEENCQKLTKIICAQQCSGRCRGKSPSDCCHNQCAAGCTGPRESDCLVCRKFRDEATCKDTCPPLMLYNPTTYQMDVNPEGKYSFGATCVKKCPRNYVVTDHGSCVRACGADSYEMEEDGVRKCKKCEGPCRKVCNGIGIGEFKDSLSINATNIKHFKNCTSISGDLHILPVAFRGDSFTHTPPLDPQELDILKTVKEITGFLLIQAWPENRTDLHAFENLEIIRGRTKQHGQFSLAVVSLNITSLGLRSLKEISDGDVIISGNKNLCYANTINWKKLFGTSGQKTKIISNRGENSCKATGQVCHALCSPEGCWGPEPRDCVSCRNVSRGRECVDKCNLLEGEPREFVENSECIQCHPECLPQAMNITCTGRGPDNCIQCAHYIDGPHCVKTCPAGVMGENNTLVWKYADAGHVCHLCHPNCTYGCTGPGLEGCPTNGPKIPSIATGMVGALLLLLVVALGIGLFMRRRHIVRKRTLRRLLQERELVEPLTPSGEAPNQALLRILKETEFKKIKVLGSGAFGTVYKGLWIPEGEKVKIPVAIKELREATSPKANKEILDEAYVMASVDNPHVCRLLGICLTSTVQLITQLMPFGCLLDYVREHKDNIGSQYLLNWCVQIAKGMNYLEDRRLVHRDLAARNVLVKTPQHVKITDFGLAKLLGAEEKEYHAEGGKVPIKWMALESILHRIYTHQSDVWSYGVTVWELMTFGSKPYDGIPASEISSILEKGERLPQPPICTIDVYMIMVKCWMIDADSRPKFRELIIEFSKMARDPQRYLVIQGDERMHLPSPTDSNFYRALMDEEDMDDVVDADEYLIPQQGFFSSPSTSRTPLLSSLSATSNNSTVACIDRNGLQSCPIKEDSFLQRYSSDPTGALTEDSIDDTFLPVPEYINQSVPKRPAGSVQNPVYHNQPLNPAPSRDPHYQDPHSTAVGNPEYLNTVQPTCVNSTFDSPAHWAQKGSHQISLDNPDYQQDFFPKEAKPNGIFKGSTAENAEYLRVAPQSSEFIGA
UniProt P00533, 25-1210 C797S/L858R limits assumed: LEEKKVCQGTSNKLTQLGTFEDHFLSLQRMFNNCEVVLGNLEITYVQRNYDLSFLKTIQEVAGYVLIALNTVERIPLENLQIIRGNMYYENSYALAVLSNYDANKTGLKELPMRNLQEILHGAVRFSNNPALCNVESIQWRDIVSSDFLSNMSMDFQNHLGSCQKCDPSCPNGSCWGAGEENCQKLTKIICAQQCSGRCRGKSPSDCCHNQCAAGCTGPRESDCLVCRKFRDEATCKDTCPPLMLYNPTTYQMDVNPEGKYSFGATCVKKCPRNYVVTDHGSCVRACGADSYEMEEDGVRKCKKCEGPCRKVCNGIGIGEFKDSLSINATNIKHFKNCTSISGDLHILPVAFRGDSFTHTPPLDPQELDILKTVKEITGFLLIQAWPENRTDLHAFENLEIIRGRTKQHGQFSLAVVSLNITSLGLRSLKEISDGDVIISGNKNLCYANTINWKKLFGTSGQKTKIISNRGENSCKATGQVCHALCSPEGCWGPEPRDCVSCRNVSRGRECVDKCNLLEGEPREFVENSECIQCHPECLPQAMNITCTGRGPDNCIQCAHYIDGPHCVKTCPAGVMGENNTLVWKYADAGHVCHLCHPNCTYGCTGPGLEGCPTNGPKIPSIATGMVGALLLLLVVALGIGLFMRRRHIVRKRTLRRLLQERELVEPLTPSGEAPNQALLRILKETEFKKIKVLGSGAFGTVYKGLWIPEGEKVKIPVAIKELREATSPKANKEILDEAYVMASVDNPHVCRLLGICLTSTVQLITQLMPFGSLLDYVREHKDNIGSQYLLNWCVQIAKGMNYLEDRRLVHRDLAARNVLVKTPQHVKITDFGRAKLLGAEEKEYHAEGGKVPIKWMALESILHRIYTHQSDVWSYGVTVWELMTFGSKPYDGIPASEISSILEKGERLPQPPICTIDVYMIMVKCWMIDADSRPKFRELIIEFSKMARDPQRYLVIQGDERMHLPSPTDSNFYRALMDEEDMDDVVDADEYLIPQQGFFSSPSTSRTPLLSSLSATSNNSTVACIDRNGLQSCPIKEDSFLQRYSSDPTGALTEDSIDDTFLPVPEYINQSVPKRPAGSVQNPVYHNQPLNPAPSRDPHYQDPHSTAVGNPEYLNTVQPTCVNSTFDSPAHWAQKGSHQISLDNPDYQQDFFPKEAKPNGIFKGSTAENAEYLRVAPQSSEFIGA
UniProt P00533, 25-1210 T790M/C797S/L858R limits assumed: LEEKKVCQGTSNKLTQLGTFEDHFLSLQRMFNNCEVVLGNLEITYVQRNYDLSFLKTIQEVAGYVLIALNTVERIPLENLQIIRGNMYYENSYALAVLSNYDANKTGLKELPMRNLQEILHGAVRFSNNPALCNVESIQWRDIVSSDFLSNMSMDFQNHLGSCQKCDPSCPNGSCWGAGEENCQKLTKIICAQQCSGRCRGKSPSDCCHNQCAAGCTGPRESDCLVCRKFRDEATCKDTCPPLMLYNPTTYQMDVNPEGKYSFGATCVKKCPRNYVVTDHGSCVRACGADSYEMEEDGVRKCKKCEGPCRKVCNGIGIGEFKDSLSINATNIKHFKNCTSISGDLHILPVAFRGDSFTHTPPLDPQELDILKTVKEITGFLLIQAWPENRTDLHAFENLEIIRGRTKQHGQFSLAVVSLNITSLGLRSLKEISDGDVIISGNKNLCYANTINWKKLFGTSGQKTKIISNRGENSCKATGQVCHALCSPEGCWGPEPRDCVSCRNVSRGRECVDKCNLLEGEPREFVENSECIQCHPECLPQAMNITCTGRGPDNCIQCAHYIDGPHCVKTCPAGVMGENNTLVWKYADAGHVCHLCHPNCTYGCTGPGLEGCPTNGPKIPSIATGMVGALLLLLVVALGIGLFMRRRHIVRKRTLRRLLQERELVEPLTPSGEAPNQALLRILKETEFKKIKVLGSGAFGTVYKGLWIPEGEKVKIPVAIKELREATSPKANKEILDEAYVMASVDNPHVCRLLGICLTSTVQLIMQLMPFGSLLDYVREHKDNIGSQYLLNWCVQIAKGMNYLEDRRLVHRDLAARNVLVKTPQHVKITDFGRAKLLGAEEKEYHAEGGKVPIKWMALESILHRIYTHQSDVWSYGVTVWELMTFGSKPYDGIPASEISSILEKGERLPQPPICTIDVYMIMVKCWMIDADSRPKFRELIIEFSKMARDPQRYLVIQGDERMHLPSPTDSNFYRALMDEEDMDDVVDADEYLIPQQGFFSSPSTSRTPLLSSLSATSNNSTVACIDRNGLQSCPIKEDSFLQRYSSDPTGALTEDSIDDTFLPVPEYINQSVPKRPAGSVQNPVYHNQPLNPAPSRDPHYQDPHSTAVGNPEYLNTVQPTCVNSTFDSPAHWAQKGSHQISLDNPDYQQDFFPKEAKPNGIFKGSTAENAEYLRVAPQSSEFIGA
UniProt P00533, with tags, fused parts or gaps DEL746-750/C797S limits assumed: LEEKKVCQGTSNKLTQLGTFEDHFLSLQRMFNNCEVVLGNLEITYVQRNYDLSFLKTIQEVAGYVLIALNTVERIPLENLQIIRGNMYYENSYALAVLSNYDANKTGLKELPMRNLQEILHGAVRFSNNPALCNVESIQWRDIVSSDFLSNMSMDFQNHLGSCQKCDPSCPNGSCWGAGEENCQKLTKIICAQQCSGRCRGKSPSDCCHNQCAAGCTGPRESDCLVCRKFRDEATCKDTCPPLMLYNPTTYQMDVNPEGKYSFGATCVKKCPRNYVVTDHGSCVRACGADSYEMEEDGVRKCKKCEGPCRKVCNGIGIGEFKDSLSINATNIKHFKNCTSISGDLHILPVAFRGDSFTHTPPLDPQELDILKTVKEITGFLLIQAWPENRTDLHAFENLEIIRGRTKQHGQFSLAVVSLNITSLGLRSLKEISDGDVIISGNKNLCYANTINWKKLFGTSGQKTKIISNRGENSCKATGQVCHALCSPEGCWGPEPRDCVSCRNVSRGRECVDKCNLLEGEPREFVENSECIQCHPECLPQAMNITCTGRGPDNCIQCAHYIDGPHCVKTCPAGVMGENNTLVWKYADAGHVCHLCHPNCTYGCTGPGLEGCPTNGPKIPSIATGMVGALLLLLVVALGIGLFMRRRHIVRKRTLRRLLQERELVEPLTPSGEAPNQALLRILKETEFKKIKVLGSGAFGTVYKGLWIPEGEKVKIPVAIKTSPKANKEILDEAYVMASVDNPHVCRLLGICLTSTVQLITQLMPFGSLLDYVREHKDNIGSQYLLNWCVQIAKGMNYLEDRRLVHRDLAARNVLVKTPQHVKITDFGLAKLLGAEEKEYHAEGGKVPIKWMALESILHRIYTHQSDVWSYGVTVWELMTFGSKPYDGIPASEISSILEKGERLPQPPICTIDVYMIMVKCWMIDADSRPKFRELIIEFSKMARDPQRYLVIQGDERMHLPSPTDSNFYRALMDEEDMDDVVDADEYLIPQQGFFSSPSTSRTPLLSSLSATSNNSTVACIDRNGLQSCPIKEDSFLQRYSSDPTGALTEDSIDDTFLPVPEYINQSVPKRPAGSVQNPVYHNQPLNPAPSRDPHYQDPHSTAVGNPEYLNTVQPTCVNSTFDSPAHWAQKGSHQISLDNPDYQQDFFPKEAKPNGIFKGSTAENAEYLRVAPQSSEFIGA
UniProt P00533, with tags, fused parts or gaps DEL746-750/T790M/C797S limits assumed: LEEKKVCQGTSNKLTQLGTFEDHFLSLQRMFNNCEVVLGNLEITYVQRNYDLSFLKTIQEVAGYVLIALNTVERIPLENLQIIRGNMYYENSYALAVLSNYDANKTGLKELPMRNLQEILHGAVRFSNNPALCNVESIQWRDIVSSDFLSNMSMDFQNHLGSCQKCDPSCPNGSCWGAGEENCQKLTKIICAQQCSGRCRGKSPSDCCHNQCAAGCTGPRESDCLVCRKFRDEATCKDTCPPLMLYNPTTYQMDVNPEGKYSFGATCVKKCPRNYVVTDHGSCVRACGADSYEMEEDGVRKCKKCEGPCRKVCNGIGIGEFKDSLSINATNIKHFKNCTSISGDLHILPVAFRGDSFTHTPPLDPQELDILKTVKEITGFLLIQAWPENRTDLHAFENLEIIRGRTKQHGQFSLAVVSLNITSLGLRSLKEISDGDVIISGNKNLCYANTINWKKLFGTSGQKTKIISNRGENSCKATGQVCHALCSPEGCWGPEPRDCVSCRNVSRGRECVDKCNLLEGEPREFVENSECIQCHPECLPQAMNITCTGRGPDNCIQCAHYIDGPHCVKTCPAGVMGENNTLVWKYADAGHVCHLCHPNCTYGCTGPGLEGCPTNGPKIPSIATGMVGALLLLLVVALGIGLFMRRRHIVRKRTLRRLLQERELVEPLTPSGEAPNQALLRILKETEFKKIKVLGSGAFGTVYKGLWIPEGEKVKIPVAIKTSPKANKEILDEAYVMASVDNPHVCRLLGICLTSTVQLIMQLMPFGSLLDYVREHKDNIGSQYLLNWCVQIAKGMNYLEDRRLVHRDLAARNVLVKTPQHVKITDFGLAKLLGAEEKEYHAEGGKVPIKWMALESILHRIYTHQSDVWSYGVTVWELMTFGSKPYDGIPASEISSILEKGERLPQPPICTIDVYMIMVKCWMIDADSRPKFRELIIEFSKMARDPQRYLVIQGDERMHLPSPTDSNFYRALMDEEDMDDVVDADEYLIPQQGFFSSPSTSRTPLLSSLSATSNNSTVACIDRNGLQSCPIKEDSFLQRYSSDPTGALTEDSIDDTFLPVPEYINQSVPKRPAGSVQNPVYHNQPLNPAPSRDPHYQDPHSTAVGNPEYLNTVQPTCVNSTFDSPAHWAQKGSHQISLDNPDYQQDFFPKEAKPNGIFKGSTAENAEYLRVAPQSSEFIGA

What was measured:
[1] = target: EGFR WT (Homo sapiens, UniProt P00533); assay: Biochemical EGFR kinase assay (Lance Ultra TR-FRET), wildtype
Procedure: (§1) Biochemical EGFR kinase assays were conducted using Lance Ultra time-resolved fluorescence resonance energy transfer (TR-FRET) technology from Perkin-Elmer. Compounds of the invention were initially diluted to 20 mM in 100% DMSO for storage and made into kinase buffer solution to create a compound concentration ranging from 0.003 μM and 10 μM.
(§2) Briefly, each EGFR enzyme wildtype (EGFR WT), double mutant [del19/C797S (EGFR D19CS) and L858R/C797S (EGFR LRCS)], triple mutant [del19/T790M/C797S (EGFR D19TMCS) and L858R/T790M/C797S (EGFR LRTMCS)], serial diluted EGFR inhibitors, substrate of ULight-poly-GT peptide (PerkinElmer; TRF0100-M) and different concentrations of ATP (Km and 100 μM final assay concentration) were mixed in kinase assay buffer (50 mM HEPES pH 7.4, 10 mM MgCl2, 1 mM EGTA, 2 mM DTT and 0.01% Tween-20) and were added to a 384-well plate (Optiplate™ 384, white, PerkinElmer; 6007290).
(§3) Each kinase reactions were incubated at room temperature for 1 hour and then stopped by the addition of 4 μL of stop solution (10 mM EDTA). The specific Europium-labeled-anti-phosphopeptide antibody (PerkinElmer, AD0069) diluted in LANCE detection buffer was then added to a final concentration of 2 nM. After 60 minutes incubation at room temperature the LANCE signal was measured on an EnVision Multilabel Reader (Perkin-Elmer). Excitation wavelength was set at 320 nm and emission monitored at 615 nm (donor) and 665 nm (acceptor). The IC50 values were determined using GraphPad prism software (GraphPad Software, Inc., San Diego, CA, USA).

[2] = target: EGFR LRCS (L858R/C797S) (Homo sapiens, UniProt P00533, C797S/L858R); assay: Biochemical EGFR kinase assay (Lance Ultra TR-FRET), double mutant L858R/C797S
Procedure: as §1, §2, §3

[3] = target: EGFR LRTMCS (L858R/T790M/C797S) (Homo sapiens, UniProt P00533, C797S/L858R/T790M); assay: Biochemical EGFR kinase assay (Lance Ultra TR-FRET), triple mutant L858R/T790M/C797S
Procedure: as §1, §2, §3

[4] = target: EGFR D19TMCS (del19/T790M/C797S) (Homo sapiens, UniProt P00533, C797S/DEL746-750/T790M); assay: Biochemical EGFR kinase assay (Lance Ultra TR-FRET), triple mutant del19/T790M/C797S
Procedure: as §1, §2, §3

[5] = target: EGFR D19CS (del19/C797S) (Homo sapiens, UniProt P00533, C797S/DEL746-750); assay: Biochemical EGFR kinase assay (Lance Ultra TR-FRET), double mutant del19/C797S
Procedure: as §1, §2, §3

[6] = read-out: EGFR WT IC50, ATP 1 mM
[7] = read-out: EGFR LRCS IC50, ATP 1 mM
[8] = read-out: EGFR LRCS IC50, ATP Km
[9] = read-out: EGFR LRTMCS IC50, ATP 1 mM
[10] = read-out: EGFR LRTMCS IC50, ATP Km
[11] = read-out: EGFR D19TMCS IC50, ATP 1 mM
[12] = read-out: EGFR D19TMCS IC50, ATP Km
[13] = read-out: EGFR D19CS IC50, ATP 1 mM
[14] = read-out: EGFR D19CS IC50, ATP Km
[15] = read-out: IC50, EGFR WT, 1 mM, ATP 1 mM, EGFR wildtype
[16] = read-out: IC50, EGFR WT, Km, ATP at Km, EGFR wildtype
[17] = read-out: IC50, EGFR-LRCS, 1 mM, ATP 1 mM, EGFR L858R/C797S
[18] = read-out: IC50, EGFR-LRCS, Km, ATP at Km, EGFR L858R/C797S
[19] = read-out: IC50, EGFR LRTMCS, 1 mM, ATP 1 mM, EGFR L858R/T790M/C797S
[20] = read-out: IC50, EGFR LRTMCS, Km, ATP at Km, EGFR L858R/T790M/C797S
[21] = read-out: IC50, EGFR D19TMCS, Km, ATP at Km, EGFR del19/T790M/C797S
[22] = read-out: IC50, EGFR-D19CS, 1 mM, ATP 1 mM, EGFR del19/C797S
[23] = read-out: IC50, EGFR-D19CS, Km, ATP at Km, EGFR del19/C797S

SMILES | IC50 [1, 6] [nM] | IC50 ([1]; read-out: EGFR WT IC50, ATP Km) [nM] | IC50 [2, 7] [nM] | IC50 [2, 8] [nM] | IC50 [3, 9] [nM] | IC50 [3, 10] [nM] | IC50 [4, 11] [nM] | IC50 [4, 12] [nM] | IC50 [5, 13] [nM] | IC50 [5, 14] [nM] | IC50 [1, 15] [nM] | IC50 [1, 16] [nM] | IC50 [2, 17] [nM] | IC50 [2, 18] [nM] | IC50 [3, 19] [nM] | IC50 [3, 20] [nM] | IC50 [4, 21] [nM] | IC50 [5, 22] [nM] | IC50 [5, 23] [nM]
Cc1cn(C)nc1-c1cnc2cc1NCC[C@H](C)Oc1c(cnn1C)-c1nccc(n1)N2 | > 1000 | 10 to 100 | 100 to 1000 | < 10 | < 10 | < 10 | < 10 | < 10 | 100 to 1000 | 10 to 100 |  |  |  |  |  |  |  |  | 
Cc1nn(C)c2c1-c1nccc(n1)Nc1cc(c(-c3ncc(C(C)(C)O)cc3F)cn1)N[C@@H](C)CCO2 | > 1000 | 10 to 100 | 100 to 1000 | < 10 | 10 to 100 | < 10 | < 10 | < 10 | 10 to 100 | < 10 |  |  |  |  |  |  |  |  | 
Cc1nn(C)c2c1-c1nccc(n1)Nc1cc(c(-c3ncc(CN4CCC(O)CC4)cc3F)cn1)N[C@@H](C)CCO2 |  |  |  |  |  |  |  |  |  |  | > 1000 | 10 to 100 | 10 to 100 | < 10 | < 10 | < 10 | < 10 | 10 to 100 | < 10
Cn1ncc2c1OC[C@H](F)CNc1cc(ncc1-c1ccn(C(F)F)n1)Nc1ccnc-2n1 | > 1000 | > 1000 | > 1000 | > 1000 | 100 to 1000 | < 10 | 10 to 100 | < 10 | > 1000 | > 1000 |  |  |  |  |  |  |  |  | 
Cc1nn(C)c2c1-c1nccc(n1)Nc1cc(c(-c3ncc(S(C)(=O)=O)cc3F)cn1)NCC[C@H](C)O2 | > 1000 | > 1000 | > 1000 | 100 to 1000 | 100 to 1000 | 10 to 100 | > 1000 | 100 to 1000 | > 1000 | > 1000 |  |  |  |  |  |  |  |  | 
Cc1nn(C)c2c1-c1nccc(n1)Nc1cc(c(-c3ccc(OC(F)F)cn3)cn1)NCC[C@H](C)O2 |  |  |  |  |  |  |  |  |  |  | > 1000 | 10 to 100 | 100 to 1000 | < 10 | 10 to 100 | < 10 | < 10 | 10 to 100 | < 10

Now from value to compound:

IC50 [1, 6] [nM] | IC50 ([1]; read-out: EGFR WT IC50, ATP Km) [nM] | IC50 [2, 7] [nM] | IC50 [2, 8] [nM] | IC50 [3, 9] [nM] | IC50 [3, 10] [nM] | IC50 [4, 11] [nM] | IC50 [4, 12] [nM] | IC50 [5, 13] [nM] | IC50 [5, 14] [nM] | IC50 [1, 15] [nM] | IC50 [1, 16] [nM] | IC50 [2, 17] [nM] | IC50 [2, 18] [nM] | IC50 [3, 19] [nM] | IC50 [3, 20] [nM] | IC50 [4, 21] [nM] | IC50 [5, 22] [nM] | IC50 [5, 23] [nM] | SMILES
> 1000 | 10 to 100 | 100 to 1000 | 10 to 100 | < 10 | < 10 | < 10 | < 10 | 10 to 100 | < 10 |  |  |  |  |  |  |  |  |  | CC1CCCOc2c(cnn2C)-c2nccc(n2)Nc2cc(c(-c3ccn(C(F)F)n3)cn2)N1 (centres unmarked)
> 1000 | < 10 | 10 to 100 | < 10 | < 10 | < 10 | < 10 | < 10 | < 10 | < 10 |  |  |  |  |  |  |  |  |  | C[C@H]1CCNc2cc(ncc2-c2ccn(CC(F)(F)F)n2)Nc2ccnc(n2)-c2cnn(C)c2O1
> 1000 | 10 to 100 | 10 to 100 | < 10 | < 10 | < 10 | < 10 | < 10 | < 10 | < 10 |  |  |  |  |  |  |  |  |  | C[C@H]1CCOc2c(cnn2C)-c2nccc(n2)Nc2cc(c(-c3ncc(CN4CC(CC(F)F)C4)cc3F)cn2)N1
> 1000 | 10 to 100 | > 1000 | 10 to 100 | < 10 | < 10 | < 10 | < 10 | 100 to 1000 | 10 to 100 |  |  |  |  |  |  |  |  |  | Cn1nc(-c2cnc3cc2NCC(C)(C)COc2c(cnn2C)-c2nccc(n2)N3)cc1C(F)(F)F
